In patent publication US6825348B2, “Antiviral compounds” (Academia Sinica, priority 2002, dated 2004):

Tested on: Spleen phosphodiesterase
Experiment: Activity of spleen phosphodiesterase against nucleotide analogs
Conditions: pH 6.5, 37° C., 8 h

`Nc1ncnc2c1ncn2[C@@H]1O[C@H](COP(=O)(O)O)[C@@H](OP(=O)(O)COCCn2cnc3ncnc(N)c32)[C@H]1O` [Compound 24, 9-[5′-O-(phosphono)-β-D-furanosyl]adenine-3′-[[1-(adenin-7-yl-ethoxy)methyl]phosphonate]] was tested, and the “yield of phosphonate 20 and adenosine 5′-monophosphate 21 with spleen phosphodiesterase” value was “about 60%”.
